Structures are written as SMILES. The entries are a selection whose mix differs from that of the whole data set. Some of these compounds have results that are not shown, active ones among them. Activity calls are given as the source filed them.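 Rule for the calls: active = highest replicate inhibition at or above 60% at 9 µM, even if other replicates fall short; inactive = all replicates below 60% inhibition.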

This experiment concerns Kaposi's sarcoma herpesvirus LANA C-terminal domain (residues 932-1162) DNA binding. Briefly: inhibitors of KSHV C-LANA binding to DNA, primary screen, biochemical, fluorescence polarization, FAM-LBS DNA, MBP-C-LANA, single point (AID 504423).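 Note: 0% = neutral control wells and 100% = 4 µM acridine orange control.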 The settings on record: at 9 µM, hits give high values. On the technique in general: Polarisation of emitted light reports the rotation of a fluorescent probe.
By inhibition is commonly meant the drop in the measured response relative to a control, in per cent. Take `COc1cc(C(=O)NCC2(N(C)C)CCCCC2)c([N+](=O)[O-])cc1OC`: the inhibition is inactive: 1.69%.
Regarding `CN(C)C1(CNC(=O)c2ccc(Br)cc2)CCCCC1`, the inhibition was inactive: -0.339%.
Regarding `O=C(NCC1(N2CCCCC2)CCCCC1)c1cccc(Cl)c1`, the inhibition was inactive: -0.0159%.
Consider `COc1cccc(C(=O)NCC2(N3CCCCC3)CCCCC2)c1`, for which the inhibition is inactive: -0.291%.
In the case of `COc1ccc(Cl)cc1C(=O)NCC1(N(C)C)CCCCC1`, the inhibition is inactive: -0.373%.
As to `O=C(OC1CN2CCC1CC2)C(CO)(c1ccccc1)c1ccccc1` (stereo not given), the inhibition was inactive: 0.274%.
In the case of `CC(C)Oc1ccc(C(=O)NCC2(N(C)C)CCCCC2)cc1`, the inhibition is inactive: -1.74%.
Consider `O=C(OCCN1CCCC1)C(O)(c1ccccc1)c1ccccc1`, for which the inhibition was inactive: -1.42%.
The value for `CN(C)c1cccc(C(=O)NCC2(N(C)C)CCCCC2)c1` was inactive: -0.648%.
As to `COc1ccc(Br)c(C(=O)NCC2(N3CCCCC3)CCCCC2)c1`, the inhibition is inactive: 0.34%.
Regarding `CN1[C@@H]2CC[C@H]1CC(OC(=O)C(O)(c1ccccc1)c1ccccc1)C2` (stereo not given in full), the inhibition was inactive: 0.385%.
Then `O=C(NCC1(N2CCCCC2)CCCCC1)c1cc([N+](=O)[O-])ccc1Cl`, with inactive: -1.18%; and `Cc1ccc(C(=O)NCC2(N3CCCCC3)CCCCC2)cc1`, with inactive: -1.62%; and `CCN(CC)CC(C)C(C)OC(=O)C(O)(c1ccccc1)c1ccccc1` (stereo not given), with inactive: 0.733%.
For `COc1cc(SC)ccc1C(=O)NCC1(N(C)C)CCCCC1`, the inhibition is inactive: -2.29%.
Consider `CC(C)N1C(=O)CC2(CCN(CCOC(=O)C(O)(c3ccccc3)c3ccccc3)CC2)C1=O`, for which the inhibition was inactive: -0.415%.
Consider `Cc1ccccc1C(=O)NCC1(N2CCCCC2)CCCCC1`, for which the inhibition is inactive: -0.722%.
For `CN(C)c1ccc(C(=O)NCC2(N(C)C)CCCCC2)cc1`, the inhibition was inactive: -0.64%.
Then `CN(C)C1CCCC1OC(=O)C(O)(c1ccccc1)c1ccccc1` (stereo not given), with inactive: 0.131%; and `COc1ccc(C(=O)NCC2(N(C)C)CCCCC2)cc1`, with inactive: -3.92%; and `CCN1CCCC(OC(=O)C2(O)c3ccccc3C=Cc3ccccc32)C1` (stereo not given), with inactive: 2.56%.
The value for `Cc1cc(C(=O)NCC2(N3CCCCC3)CCCCC2)ccc1[N+](=O)[O-]` was inactive: 0.538%; that for `O=C(NCC1(N2CCCCC2)CCCCC1)c1cccc(Br)c1` was inactive: -1.83%; that for `C=CCN1CCN(CCOC(=O)C(O)(c2ccccc2)c2ccccc2)CC1` was inactive: 1.32%.
On to `O=C(NCC1(N2CCCCC2)CCCCC1)c1cc(F)c(F)cc1Cl`, for which the inhibition is inactive: -0.757%.

For the origin of these results see PubChem BioAssay AID504423 (Broad Institute, 2011).
